Test results reported in PubChem BioAssay AID624125 (The Scripps Research Institute Molecular Screening Center, 2012).
The list shows a part of the results, in another mix than the full data. The source made the active and inactive calls.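 Rule for the calls: active = inhibition above its plate's cutoff, the mean inhibition of sample wells plus 3 SD (cut at about 27% in these data); inactive = the rest.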

Protein sequences, listed by entry. Tags and fused reporters are not part of them.
UniProt P08173, whole entry, looked up: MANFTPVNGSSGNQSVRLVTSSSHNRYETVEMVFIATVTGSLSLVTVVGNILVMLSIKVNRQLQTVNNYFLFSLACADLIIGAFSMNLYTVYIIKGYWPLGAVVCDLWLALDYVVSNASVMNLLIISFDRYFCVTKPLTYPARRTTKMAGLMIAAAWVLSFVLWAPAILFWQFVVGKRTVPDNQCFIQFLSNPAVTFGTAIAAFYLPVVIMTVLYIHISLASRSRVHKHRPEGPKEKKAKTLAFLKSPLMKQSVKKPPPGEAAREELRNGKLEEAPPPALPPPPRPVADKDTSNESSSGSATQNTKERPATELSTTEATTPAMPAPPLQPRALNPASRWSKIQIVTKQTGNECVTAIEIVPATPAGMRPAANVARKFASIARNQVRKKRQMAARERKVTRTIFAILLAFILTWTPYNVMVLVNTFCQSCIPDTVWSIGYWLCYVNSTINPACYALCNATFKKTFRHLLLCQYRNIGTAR

target: Muscarinic acetylcholine receptor M4 (Homo sapiens) (UniProt P08173); assay: CHRM4 blockers of acetylcholine calcium response – CHO cells, Fluo-8 calcium fluorescence, primary screen (AID 624125); settings: CHO-hM4 cells, ACh EC80, Fluo-8 calcium fluorescence; at 3 µM; hits give high values;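 note: 0% = acetylcholine EC80 with DMSO and 100% = DMSO without agonist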

| Structure (SMILES) | inhibition |
| --- | --- |
| O=C(O)c1ccccc1[As](=O)(O)O | inactive: -8.85% |
| CC(=O)Nc1ccc([As](=O)(O)O)cc1 | inactive: -10.8% |
| CC(=O)O[C@]1(C)C(=O)OC/C2=C/CN(C)CCC(OC(=O)[C@@](O)(C(C)O)C[C@H]1C)C2=O (some centres undefined) | inactive: 0.65% |
| CCCC1OP(N)(=O)OCC1CC (centres undefined) | inactive: -18.6% |
| CN(C)P(=O)(N(C)C)n1c(Nc2ccccc2)nnc1-c1ccccc1 | inactive: -2.84% |
| O=P(Nc1nc2ccc(Cl)cc2s1)(c1ccccc1)c1ccccc1 | inactive: 15.8% |
| CCOP(=O)(Nc1ccccc1)OCC | inactive: -1.49% |
| Cc1cc(SC(NC(=O)c2ccc(F)cc2)C(Cl)(Cl)Cl)ncn1 (centres undefined) | inactive: 0.53% |
| CN(C(=O)Cc1ccc(Cl)c(Cl)c1)[C@H]1CCCC[C@@H]1N1CCCC1 | inactive: -1.68% |
| Cc1ccc(NP(=O)(Oc2ccccc2F)Oc2ccccc2F)nc1 | inactive: -7.29% |
| CCN(N=Nc1nonc1N)c1nonc1N | active: 27.2% |
| Nc1cccc2ccc([As](=O)(O)O)cc12 | inactive: 22.2% |
| NC(=O)c1cc([N+](=O)[O-])cc([N+](=O)[O-])c1N | inactive: -1.54% |
| CN(C(=O)Cc1ccc(Cl)c(Cl)c1)[C@H]1CCCC[C@H]1N1CCCC1 | inactive: -9.7% |
| Cc1ccc(N/C(=N/P(=O)(N2CCOCC2)N2CCOCC2)N2CCOCC2)cc1 | inactive: -16.1% |
| CC(C)[C@H]1C(=O)O[C@@H]2CCN3CC=C(COC(=O)[C@](C)(O)[C@]1(C)O)[C@H]23 | inactive: 4.04% |
| COc1ccccc1OP(=O)(Nc1ccc(C)cn1)Oc1ccccc1OC | inactive: -9.54% |
| Cc1ccc(OP(=O)(Nc2nccs2)Oc2ccc(C)cc2)cc1 | inactive: 1.04% |
| Clc1ccc(Cl)c(NC2=NCC(CBr)S2)c1 (centres undefined) | inactive: -1.43% |
| CN1CCCC(OC(=O)C(c2ccccc2)c2ccccc2)C1 (centres undefined) | active: 49.5% |
| CC(C)CC(=O)NC(Sc1ccc(Cl)cc1)C(Cl)(Cl)Cl (centres undefined) | inactive: 3% |
| Nc1cc(N)c2nonc2c1[N+](=O)[O-] | inactive: 0.15% |

| Structure (SMILES) | inhibition |
| --- | --- |
| Oc1ccccc1CNc1ccccn1 | inactive: 13.7% |
| O=C(NC(Sc1ccncn1)C(Cl)(Cl)Cl)c1ccccc1 (centres undefined) | inactive: -1.58% |
| O=[N+]([O-])C1C(O)C(O)C([N+](=O)[O-])C(O)C1O (centres undefined) | inactive: -1.65% |
| COc1ccc(C2=NCC(CBr)S2)cc1 (centres undefined) | inactive: -0.13% |
| CC(=O)N1C2C3N(C(C)=O)C1C1N(C(C)=O)C(C(N1C(C)=O)N3C(C)=O)N2C(C)=O | inactive: 5.28% |
| O=[N+]([O-])c1cccc2n[nH]nc12 | inactive: 7.83% |
| Cc1ccc(NP(=O)(Oc2ccccc2)Oc2ccccc2)nc1 | inactive: -4.99% |
| O=[N+]([O-])c1cc([N+](=O)[O-])c(CCNc2ccccc2)c([N+](=O)[O-])c1 | inactive: -1.58% |
| CCc1nc2c(n1)c1c(non1O)c1c2no[n+]1[O-] | inactive: 4.35% |
| Nc1ccc([As](=O)(O)c2ccc(N)cc2)cc1 | inactive: 4.13% |
| C[N+]1=C2C=CC=CC=C2SC12C([N+](=O)[O-])=CC([N+](=O)[O-])=C[C-]2[N+](=O)[O-] (centres undefined) | active: 48.1% |
| CCN(/C(=N/P(=O)(N1CCOCC1)N1CCOCC1)N1CCOCC1)c1ccc(OC)cc1 | inactive: -8.6% |
| CC(C)=N/N=C(\N)N[N+](=O)[O-] | inactive: 0.72% |
| CC(C)c1nc(Nc2ccccc2)n(P(=O)(N(C)C)N(C)C)n1 | inactive: -11.7% |
| CN(C)C(=O)OCCc1n(C)cc[n+]1C | inactive: 11.2% |
| c1cc(-c2nn[nH]n2)ccc1-c1nn[nH]n1 | inactive: -6.97% |
| CC1CCN(C(=O)Oc2c(Cl)cc(Cl)c3cccnc23)CC1 | inactive: 6.38% |
| O=P1(N(CCCl)CCCl)OCCCS1 (centres undefined) | inactive: -1.61% |
| O=C(Nc1cc([As](=O)(O)O)ccc1O)c1ccccc1 | inactive: -0.57% |
| CC(C)(C)C(=O)NC(Sc1ccncn1)C(Cl)(Cl)Cl (centres undefined) | inactive: -7.27% |
| O=[N+]([O-])c1ncn(CCn2ncnc2[N+](=O)[O-])n1 | inactive: -4.13% |
| O=[N+]([O-])c1cccc(NC2=NCC(CBr)S2)c1 (centres undefined) | inactive: 7.33% |

| Structure (SMILES) | inhibition |
| --- | --- |
| COC(=O)C1(C)COP(=O)(Nc2ccccc2)OC1 (centres undefined) | inactive: -9.32% |
| C/C=C1/C[C@@H](C)[C@](O)(CO)C(=O)OCC2=CCN3CC[C@@H](OC1=O)[C@@H]23 | inactive: -6.91% |
| O=C(O)CNc1ccc([As](=O)(O)O)cc1 | inactive: 5.55% |
| Nc1ccc(CCCCOc2ccccc2)cc1 | inactive: -2.68% |
| COc1ccc(N)c([N+](=O)[O-])c1[N+](=O)[O-] | inactive: -0.34% |
| O=P(Nc1ccccn1)(c1ccc(Br)cc1)c1ccc(Br)cc1 | inactive: -12.5% |
| O=P(Nc1nc2ccccc2s1)(c1ccccc1)c1ccccc1 | inactive: 5.16% |
| C[C@H]1OP(=O)(Oc2ccccc2)[C@H](O)[C@H](O)[C@H]1N=[N+]=[N-] (some centres undefined) | inactive: -5.86% |
| CC(=O)NC(SC(=S)N(C)C)C(Cl)(Cl)Cl (centres undefined) | inactive: 6.29% |
| O=[N+]([O-])c1ncn(CCn2cnc([N+](=O)[O-])n2)n1 | inactive: -6.68% |
| O=[N+]([O-])c1ccc(O)c(/C=N/Nc2ccc([N+](=O)[O-])cc2[N+](=O)[O-])c1 | inactive: -5.9% |
| O=[As](O)(c1ccccc1)c1ccc(O)cc1 | inactive: 3.47% |
| Nc1ccc([As](=O)(O)c2ccc([N+](=O)[O-])cc2)cc1 | inactive: -1.44% |
| C(Cc1nn[nH]n1)Cc1nn[nH]n1 | inactive: 1.69% |
| O=P(Nc1nccs1)(c1ccccc1)c1ccccc1 | inactive: 4.32% |
| CC(C)C(=O)NC(Sc1ccccc1)C(Cl)(Cl)Cl (centres undefined) | inactive: -19.4% |
| c1nnnn1CCn1cnnn1 | inactive: 3.17% |
| O=P1(Nc2nc3ccc(Cl)cc3s2)COc2ccccc2O1 (centres undefined) | inactive: -10.8% |
| CCOc1ccc(C2=NCC(CBr)S2)cc1 (centres undefined) | inactive: 2.48% |
| CCc1cc(O)c([N+](=O)[O-])c(C)c1[N+](=O)[O-] | inactive: 9.33% |
